The values that follow are results of earlier work, collected in patent US7629129B1, “Hair follicle bulb as a biodosimeter” (dated 2009).

Sequences of proteins named here, by UniProt entry; tags and fusion partners are left off. A change or cut given only in a name is not applied to a line headed by its entry.
UniProt P04798: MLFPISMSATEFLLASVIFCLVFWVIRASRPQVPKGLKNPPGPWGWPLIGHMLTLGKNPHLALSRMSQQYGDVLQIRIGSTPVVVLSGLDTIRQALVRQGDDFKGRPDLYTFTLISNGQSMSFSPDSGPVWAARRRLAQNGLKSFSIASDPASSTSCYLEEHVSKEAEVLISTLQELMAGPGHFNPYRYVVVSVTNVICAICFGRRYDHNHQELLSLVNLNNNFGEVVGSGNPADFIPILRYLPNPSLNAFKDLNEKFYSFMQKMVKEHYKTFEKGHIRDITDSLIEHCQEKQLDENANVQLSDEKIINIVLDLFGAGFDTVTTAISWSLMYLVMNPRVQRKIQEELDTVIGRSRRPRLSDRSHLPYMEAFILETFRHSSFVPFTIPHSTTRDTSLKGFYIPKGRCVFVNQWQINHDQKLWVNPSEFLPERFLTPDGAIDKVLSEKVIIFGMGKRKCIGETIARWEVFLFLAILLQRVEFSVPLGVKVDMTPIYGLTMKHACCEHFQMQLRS

One data set has as its target CYP1A1 (Homo sapiens, UniProt P04798). The following applies: cell culture.
The test system of a further data set is ovarian carcinoma cells. The following applies: cell culture.
The subject of another data set is GDNF. The following applies: rats, sub-chronic doses.
Another data set deals with ALDH. The settings on record: cell culture.
A further data set has as its system NQO I. The settings on record: cell culture.
The next data set deals with GST. The following applies: cell culture.

`CCC1(c2ccccc2)C(=O)NC(=O)NC1=O`: the CYP1A1 activity entry at CYP1A1 is recorded as “increase CYP1A1 activity (cell culture)”.

With `CCOP(=S)(OCC)Oc1cc(C)nc(C(C)C)n1`, the estrogenic activity entry with ovarian carcinoma cells was “OP pesticide diazinon demonstrated estrogenic”.

Turning to `c1ccc(C2(N3CCCCC3)CCCCC2)cc1`, in the data set with GDNF, the “GDNF mRNA expression (rat brain)” value is on record as “GDNF mRNA expression increased in rats”.

For methylcholanthrene, in the data set on ALDH, the “induction of ALDH” value is “induction of ALDH (cell culture)”. For the same molecule, in the data set with NQO I, the “induction of NQO I” value was “induction of NQO I (cell culture)”. Besides, the CYP1A1 activity result at CYP1A1 was “increase CYP1A1 activity (cell culture)”. In the data set on GST, the “induction of GST” value is given as “induction of GST (cell culture)”.
